{"source": "patent US7179645B2", "about": "(priority 2002, dated 2007)", "origin": "cited, not measured here", "target": "HER-2/neu receptor (Homo sapiens, UniProt P04626)", "conditions": "in vivo; cited from earlier work"}
{"substance": "Herceptin®", "values": [{"measurement": "1 year survival rate", "value": 78, "unit": "%"}, {"measurement": "duration of response (median)", "value": 9.1}, {"measurement": "median survival", "value": 25.1, "unit": "mo"}, {"measurement": "rate of objective response", "value": 50, "unit": "%"}, {"measurement": "reduction in the risk of death", "value": 20, "unit": "%"}, {"measurement": "time to disease progression", "value": 7.4, "unit": "mo"}]}
